Here are results for 1 molecule from patent US20250215101A1, “DR5 Agonist and PLK1 Inhibitor or CDK Inhibitor Combination Therapy” (Inhibrx Biosciences, Inc., priority 2022, published 2025).

Series [1] has as its system OUMS-27. Briefly: Cell viability (CellTiter-Glo) cytotoxicity assay, INBRX-109 x CDK9 or MCL-1 inhibitor matrix, 48 h, chondrosarcoma line.
Series [2] concerns SW1353. The description is as above.
Series [3] has as its system H-EMC-SS. The description is as above.
Series [4] concerns SW620. Briefly: Cell viability (CellTiter-Glo) cytotoxicity assay, INBRX-109 x CDK9 or MCL-1 inhibitor matrix, 48 h, colorectal cancer line. The following applies: dinaciclib + 1 nM INBRX-109. On the technique in general: In ATP-based viability assays light output follows the ATP content of the culture.

Regarding `CCc1cnn2c(NCc3ccc[n+]([O-])c3)cc(N3CCCC[C@H]3CCO)nc12` [Dinaciclib], the “Max Cytotox” value was found to be 86.13% in series [1] (dinaciclib + 1 nM INBRX-109), 85.11% in series [2] (dinaciclib + 1 nM INBRX-109), 99.62% in series [3] (dinaciclib + 1 nM INBRX-109) and 99.52% in series [4]. Further, the “Max Cytotox at 25 nM” value in series [1] (dinaciclib only) was 15.1%; in series [2] (dinaciclib only), 58.0%; in series [3] (dinaciclib only) it was 54.0%.
